Measured values from PubChem BioAssay AID588727 (Southern Research Specialized Biocontainment Screening …, 2011).
Only a part is listed here, and it is no random draw. Entries with a potency or affinity are not part of this list. Active and inactive are the calls of the source. How the calls were made is not given here.

Experiment: inhibitors of VEEV TC-83 cytopathic effect, confirmation, Vero cells (AID 588727)
Conditions: VEEV TC-83 cytopathic effect inhibition, at 20 µM, active compounds read high

Row | Compound | inhibition
1 | CCC(=O)N(c1ccccc1)C1(COC)CCN(CCn2nnn(CC)c2=O)CC1 | inactive: 0.74%
2 | CCC(=O)N(c1ccccc1)C1(COC)CCN(CCc2cccs2)CC1 | inactive: 0.37%
